Broadly, the MIC is the lowest concentration that inhibits growth of the organism. Low values mean inhibition by little substance, high ones a need for much substance.

The test system of the experiment is Escherichia coli. To be noted: TUM4672.

As to GENTAMICIN, the lowest concentration to inhibit growth (MIC) was 0.5 µg/mL.

For the origin of these results see ChEMBL document CHEMBL1649318, “Chromosomally encoded blaCMY-2 located on a novel SXT/R391-related integrating conjugative element in a Proteus mirabilis clinical isolate” (2010).
